Reference: PMC6879491 (Nature Communications, 2019)

Experiments:
VHαCD3-GpL = biological target: T1, VHαCD3-GpL (mouse, de-immunized); test: cell-bound Gaussia luciferase activity (equilibrium binding on intact cells); Jurkat (CD3, CD45) or U266 (HLA-A2) cells, 1 h at 37 °C with increasing concentrations of GpL fusion proteins, washed five times with ice-cold PBS; specific binding = total minus non-specific; conditions: partners not purified
T1 construct: isolated VH domain of the anti-CD3ε antibody diL2K; as the anti-CD3 VH of m2 (GenBank MN432904); also called VHCD3 fused to GpL; luciferase-tagged anti-CD3 VH variable domain; source: Hek293, electroporated, secreted, in supernatant

VLαCD3-GpL = biological target: T2, VLαCD3-GpL (mouse, de-immunized); test: as above; conditions: partners not purified
T2 construct: isolated VL domain of the anti-CD3ε antibody diL2K; as the anti-CD3 VL of m1 (GenBank MN432902); also called VLCD3 fused to GpL; luciferase-tagged anti-CD3 VL variable domain; source: Hek293, electroporated, secreted, in supernatant

binding result (VHαCD3-GpL): no binding
binding result (VLαCD3-GpL): no binding
B1: CD3 on Jurkat cells (receptor, human (endogenous in Jurkat), UniProt P07766 23-207, looked up)
chain: DGNEEMGGITQTPYKVSISGTTVILTCPQYPGSEILWQHNDKNIGGDEDDKNIGSDEDHLSLKEFSELEQSGYYVCYPRGSKPEDANFYLYLRARVCENCMEMDVMSVATIVIVDICITGGLLLLVYYWSKNRKAKAKPVTRGAGAGGRQRGQNKERPPPVPNPDYEPIRKGQRDLYSGLNQRRI
notes: CD3ε, the chain addressed by the diL2K scFv, on the surface of CD3-positive cells; On cells CD3ε stands within the TCR-CD3 complex; also called CD3ε; CD3 antigen; source: on donor T cells (functional assays)
